From paper PMC3095642, “New Synthetic Thrombin Inhibitors: Molecular Design and Experimental Verification” (PLoS ONE, 2011)

Experiments:
[1] = biological target: thrombin generation in normal donor plasma (PPP) (Homo sapiens, UniProt P00734); experiment: Thrombin generation test in plasma (endogenous thrombin potential, ETP); conditions: tested form: iodide; for IC50(ETP)/Ki: ratio of IC50 for ETP reduction in plasma to Ki in buffer system
Human thrombin = Human thrombin (Homo sapiens, UniProt P00734); experiment: Thrombin induced hydrolysis of specific substrates in buffer system; conditions: chromogenic substrate (SCHR), tested form: iodide; for IC50: read-out: Inhibition of thrombin activity (in buffer system) IC50; for Ki: read-out: Inhibition of thrombin activity (in buffer system) Ki, calculated assuming competitive type of inhibition

SMILES	IC50(ETP)/Ki [1]	IC50 ([1]; read-out: IC50 for ETP reduction in plasma, Table S2) [nM]	IC50 (Human thrombin) [nM]	Ki (Human thrombin) [nM]
Cc1ccc(S(=O)(=O)Oc2cc(C)cc(OCC[n+]3ccc(N)cc3)c2)cc1	4000	4000	11.6	1
Cc1cc(OCCC[n+]2ccc(N)cc2)cc(OS(=O)(=O)c2ccccc2F)c1	341.3	–	917	79.1
